Literature values as cited in patent publication US20200187504A1, “ENVIRONMENTALLY FRIENDLY COMPOSITIONS FOR FOLIAR AND GRANULAR CONTROL OF WEEDS” (priority 2018, published 2020).

Tested on: humans
Details: 2005 carcinogen assessment guidelines; cited from earlier work

## borate salts
  U.S. EPA carcinogenicity classification: not likely to be carcinogenic to humans
